Data from patent US11028095B2, “Spiro-lactam and bis-spiro-lactam NMDA receptor modulators and uses thereof” (Aptinyx Inc., priority 2016, dated 2021).

Amino acid sequences for entries named in this document (tags omitted). Residues count along the entry.
UniProt Q12879, 23-1464 limits assumed: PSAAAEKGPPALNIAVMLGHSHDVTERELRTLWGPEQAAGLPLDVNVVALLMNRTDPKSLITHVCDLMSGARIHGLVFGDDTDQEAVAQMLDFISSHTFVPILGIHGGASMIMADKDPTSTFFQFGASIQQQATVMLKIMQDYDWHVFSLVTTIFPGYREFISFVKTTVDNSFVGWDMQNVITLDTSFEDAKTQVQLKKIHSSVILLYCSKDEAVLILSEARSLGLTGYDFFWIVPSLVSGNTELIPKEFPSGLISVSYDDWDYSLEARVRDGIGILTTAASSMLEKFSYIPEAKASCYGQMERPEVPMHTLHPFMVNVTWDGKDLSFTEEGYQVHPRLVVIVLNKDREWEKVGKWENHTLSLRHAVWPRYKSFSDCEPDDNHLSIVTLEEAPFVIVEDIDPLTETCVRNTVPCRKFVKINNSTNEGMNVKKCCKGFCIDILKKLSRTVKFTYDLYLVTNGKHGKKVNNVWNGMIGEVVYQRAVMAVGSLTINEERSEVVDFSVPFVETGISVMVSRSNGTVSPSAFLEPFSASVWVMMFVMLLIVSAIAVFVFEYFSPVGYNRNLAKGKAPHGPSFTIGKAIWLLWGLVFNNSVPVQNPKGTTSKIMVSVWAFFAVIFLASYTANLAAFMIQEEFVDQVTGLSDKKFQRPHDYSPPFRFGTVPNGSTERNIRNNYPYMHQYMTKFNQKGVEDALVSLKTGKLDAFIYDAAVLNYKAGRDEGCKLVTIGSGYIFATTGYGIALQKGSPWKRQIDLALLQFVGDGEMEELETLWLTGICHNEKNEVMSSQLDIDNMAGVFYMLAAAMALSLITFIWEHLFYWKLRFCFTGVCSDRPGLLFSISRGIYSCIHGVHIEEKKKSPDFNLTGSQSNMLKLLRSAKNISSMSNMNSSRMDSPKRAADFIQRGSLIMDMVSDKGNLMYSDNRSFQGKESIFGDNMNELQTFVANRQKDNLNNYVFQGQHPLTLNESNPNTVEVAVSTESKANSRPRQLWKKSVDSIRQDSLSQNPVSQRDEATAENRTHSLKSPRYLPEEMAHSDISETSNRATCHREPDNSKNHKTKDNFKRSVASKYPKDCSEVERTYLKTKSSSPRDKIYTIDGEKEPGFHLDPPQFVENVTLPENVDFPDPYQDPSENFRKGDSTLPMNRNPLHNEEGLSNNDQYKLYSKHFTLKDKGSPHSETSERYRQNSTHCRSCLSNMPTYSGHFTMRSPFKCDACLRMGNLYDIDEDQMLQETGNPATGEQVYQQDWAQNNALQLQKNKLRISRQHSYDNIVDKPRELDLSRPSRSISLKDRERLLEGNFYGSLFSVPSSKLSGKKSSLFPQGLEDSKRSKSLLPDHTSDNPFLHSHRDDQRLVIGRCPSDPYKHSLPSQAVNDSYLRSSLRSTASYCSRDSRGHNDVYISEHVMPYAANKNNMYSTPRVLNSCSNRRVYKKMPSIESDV
UniProt Q13224, 27-1484 limits assumed: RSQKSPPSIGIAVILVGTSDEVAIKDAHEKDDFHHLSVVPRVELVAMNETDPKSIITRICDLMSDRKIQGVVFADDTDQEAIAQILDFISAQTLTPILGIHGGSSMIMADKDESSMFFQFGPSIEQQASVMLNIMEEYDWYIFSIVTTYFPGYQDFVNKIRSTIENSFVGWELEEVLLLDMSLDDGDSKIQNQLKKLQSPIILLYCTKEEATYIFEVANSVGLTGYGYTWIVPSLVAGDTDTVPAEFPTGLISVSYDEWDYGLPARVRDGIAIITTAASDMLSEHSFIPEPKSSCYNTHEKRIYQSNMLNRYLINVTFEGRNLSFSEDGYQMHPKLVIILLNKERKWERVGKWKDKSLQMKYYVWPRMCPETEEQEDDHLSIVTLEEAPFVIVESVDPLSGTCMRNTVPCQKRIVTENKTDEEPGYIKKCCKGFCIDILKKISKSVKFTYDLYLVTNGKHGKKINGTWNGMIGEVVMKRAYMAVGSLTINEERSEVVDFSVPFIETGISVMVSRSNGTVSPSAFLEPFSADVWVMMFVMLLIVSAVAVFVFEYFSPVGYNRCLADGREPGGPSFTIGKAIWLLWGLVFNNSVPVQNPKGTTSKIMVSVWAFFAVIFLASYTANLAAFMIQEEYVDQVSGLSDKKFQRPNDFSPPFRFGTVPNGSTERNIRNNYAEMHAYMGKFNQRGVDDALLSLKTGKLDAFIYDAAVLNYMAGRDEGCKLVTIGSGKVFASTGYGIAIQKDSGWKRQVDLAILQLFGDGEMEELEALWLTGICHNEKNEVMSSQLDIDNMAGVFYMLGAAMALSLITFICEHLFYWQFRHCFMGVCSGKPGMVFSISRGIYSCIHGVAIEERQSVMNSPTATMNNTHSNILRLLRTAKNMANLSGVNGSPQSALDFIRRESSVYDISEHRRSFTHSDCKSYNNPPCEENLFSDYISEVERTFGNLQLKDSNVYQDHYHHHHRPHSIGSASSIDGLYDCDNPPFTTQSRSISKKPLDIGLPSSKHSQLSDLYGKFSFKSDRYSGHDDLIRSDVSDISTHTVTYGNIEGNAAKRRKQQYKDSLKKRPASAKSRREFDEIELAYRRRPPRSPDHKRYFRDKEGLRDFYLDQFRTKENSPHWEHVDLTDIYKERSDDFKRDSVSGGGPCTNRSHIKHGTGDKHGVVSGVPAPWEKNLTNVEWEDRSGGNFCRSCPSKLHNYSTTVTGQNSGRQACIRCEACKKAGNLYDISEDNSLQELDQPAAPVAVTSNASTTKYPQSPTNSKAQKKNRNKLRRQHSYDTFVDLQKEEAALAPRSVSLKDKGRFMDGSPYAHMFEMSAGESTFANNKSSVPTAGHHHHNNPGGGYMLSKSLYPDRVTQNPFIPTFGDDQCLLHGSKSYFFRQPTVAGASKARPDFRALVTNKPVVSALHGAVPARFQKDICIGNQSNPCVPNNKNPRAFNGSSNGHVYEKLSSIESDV
UniProt Q14957, 20-1233 limits assumed: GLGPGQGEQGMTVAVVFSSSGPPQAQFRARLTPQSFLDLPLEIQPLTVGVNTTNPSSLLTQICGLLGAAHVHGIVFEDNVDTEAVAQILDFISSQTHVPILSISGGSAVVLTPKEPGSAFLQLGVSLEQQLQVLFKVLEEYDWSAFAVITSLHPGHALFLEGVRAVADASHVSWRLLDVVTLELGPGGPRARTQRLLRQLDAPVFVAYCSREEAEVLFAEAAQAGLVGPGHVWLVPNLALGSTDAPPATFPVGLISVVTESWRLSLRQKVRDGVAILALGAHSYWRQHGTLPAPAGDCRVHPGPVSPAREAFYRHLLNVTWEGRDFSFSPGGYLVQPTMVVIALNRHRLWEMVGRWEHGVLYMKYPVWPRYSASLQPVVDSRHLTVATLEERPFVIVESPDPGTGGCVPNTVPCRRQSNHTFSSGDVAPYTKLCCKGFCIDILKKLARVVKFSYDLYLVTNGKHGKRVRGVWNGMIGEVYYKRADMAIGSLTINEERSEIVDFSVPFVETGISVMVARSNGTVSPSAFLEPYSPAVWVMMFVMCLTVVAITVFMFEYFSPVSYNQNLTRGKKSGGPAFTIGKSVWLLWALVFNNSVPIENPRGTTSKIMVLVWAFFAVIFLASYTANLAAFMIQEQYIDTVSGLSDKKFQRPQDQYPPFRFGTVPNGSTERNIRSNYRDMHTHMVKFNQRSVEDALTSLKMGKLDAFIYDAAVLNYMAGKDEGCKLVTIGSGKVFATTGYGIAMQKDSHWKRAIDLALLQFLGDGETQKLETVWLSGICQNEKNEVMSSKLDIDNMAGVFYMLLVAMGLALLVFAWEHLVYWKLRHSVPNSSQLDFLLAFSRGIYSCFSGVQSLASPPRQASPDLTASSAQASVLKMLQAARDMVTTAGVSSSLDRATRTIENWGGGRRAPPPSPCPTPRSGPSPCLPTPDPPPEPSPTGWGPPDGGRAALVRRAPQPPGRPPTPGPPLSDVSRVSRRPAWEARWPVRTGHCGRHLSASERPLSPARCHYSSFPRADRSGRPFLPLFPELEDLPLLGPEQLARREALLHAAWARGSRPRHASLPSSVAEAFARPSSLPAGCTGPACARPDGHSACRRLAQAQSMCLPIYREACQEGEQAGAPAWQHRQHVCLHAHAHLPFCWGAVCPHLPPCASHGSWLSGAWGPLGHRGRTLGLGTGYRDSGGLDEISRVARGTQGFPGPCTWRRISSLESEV
UniProt O15399, 28-1336 limits assumed: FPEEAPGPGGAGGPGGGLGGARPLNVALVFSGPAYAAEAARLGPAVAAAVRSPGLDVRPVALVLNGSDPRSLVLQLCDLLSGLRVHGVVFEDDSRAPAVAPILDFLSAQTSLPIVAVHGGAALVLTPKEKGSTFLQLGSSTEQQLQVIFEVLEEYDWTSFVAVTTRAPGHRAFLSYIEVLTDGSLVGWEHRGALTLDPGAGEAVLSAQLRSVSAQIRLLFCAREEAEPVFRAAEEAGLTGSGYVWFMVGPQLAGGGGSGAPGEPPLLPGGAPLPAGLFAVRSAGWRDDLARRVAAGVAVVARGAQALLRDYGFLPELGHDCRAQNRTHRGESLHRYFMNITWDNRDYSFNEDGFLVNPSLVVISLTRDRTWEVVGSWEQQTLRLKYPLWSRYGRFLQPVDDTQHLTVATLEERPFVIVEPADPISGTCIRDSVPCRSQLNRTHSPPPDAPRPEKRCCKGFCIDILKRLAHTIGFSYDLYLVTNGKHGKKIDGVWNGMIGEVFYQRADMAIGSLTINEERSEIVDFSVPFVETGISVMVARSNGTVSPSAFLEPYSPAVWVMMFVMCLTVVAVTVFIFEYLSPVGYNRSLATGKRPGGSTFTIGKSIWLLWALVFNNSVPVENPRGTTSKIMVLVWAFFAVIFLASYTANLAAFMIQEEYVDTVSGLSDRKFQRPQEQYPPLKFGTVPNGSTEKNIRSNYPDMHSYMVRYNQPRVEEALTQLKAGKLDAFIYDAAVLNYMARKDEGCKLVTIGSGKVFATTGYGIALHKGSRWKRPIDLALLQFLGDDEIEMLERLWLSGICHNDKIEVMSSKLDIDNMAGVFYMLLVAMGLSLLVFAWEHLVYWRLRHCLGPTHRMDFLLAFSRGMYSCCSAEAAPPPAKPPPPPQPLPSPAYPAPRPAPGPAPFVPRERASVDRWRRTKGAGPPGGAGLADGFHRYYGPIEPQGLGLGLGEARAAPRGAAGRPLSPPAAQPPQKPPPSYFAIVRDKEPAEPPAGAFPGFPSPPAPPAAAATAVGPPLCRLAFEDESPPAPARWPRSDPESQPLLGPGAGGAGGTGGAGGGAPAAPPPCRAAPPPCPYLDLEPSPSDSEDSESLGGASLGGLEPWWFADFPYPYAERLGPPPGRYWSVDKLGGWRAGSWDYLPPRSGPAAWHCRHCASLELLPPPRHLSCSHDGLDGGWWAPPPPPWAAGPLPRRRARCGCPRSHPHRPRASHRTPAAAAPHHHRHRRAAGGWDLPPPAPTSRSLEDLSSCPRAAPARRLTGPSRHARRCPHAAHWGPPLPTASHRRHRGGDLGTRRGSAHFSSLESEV

Columns and labels:
[1] = molecular target: NMDAR2A expressing HEK cell membranes (Homo sapiens, UniProt Q12879); experiment: NMDAR agonist assay, [3H]MK-801 binding, NMDAR2A; settings: 50 μM glutamate; for EC50: read-out: NMDAR2A: log EC50 (converted), [3H]MK-801 binding
[2] = molecular target: NMDAR2B expressing HEK cell membranes (Homo sapiens, UniProt Q13224); experiment: NMDAR agonist assay, [3H]MK-801 binding, NMDAR2B; settings: 50 μM glutamate; for EC50: read-out: NMDAR2B log EC50 (converted), [3H]MK-801 binding
[3] = molecular target: NMDAR2C expressing HEK cell membranes (Homo sapiens, UniProt Q14957); experiment: NMDAR agonist assay, [3H]MK-801 binding, NMDAR2C; settings: 50 μM glutamate
[4] = molecular target: NMDAR2D expressing HEK cell membranes (Homo sapiens, UniProt O15399); experiment: NMDAR agonist assay, [3H]MK-801 binding, NMDAR2D; settings: 50 μM glutamate
IV pharmacokinetics = settings: Sprague Dawley rats, 2 mg/kg, normal saline
Description: Sprague Dawley rats were dosed intravenously using a normal saline formulation containing 2 mg/kg of the compounds identified in the below table. The table below summarizes the results of the IV pharmacokinetics.

[5] = Oral pharmacokinetics (plasma, brain, CSF); settings: Sprague Dawley rats, per os, 10 mg/kg
Description: In another experiment, Sprague Dawley rats were dosed per os using a normal saline formulation containing 10 mg/kg of the compounds identified in the table below. Plasma, brain, and CSF samples were analyzed at various time points over a 24 hour period. The table below summarizes the results of the oral pharmacokinetics.

NMDAR2A: % maximal [3H]MK-801 binding relative to 1 mM glycine [1]	EC50 [1]	NMDAR2B: % maximal [3H]MK-801 binding relative to 1 mM glycine [2]	EC50 [2]	NMDAR2C A: % maximal [3H]MK-801 binding relative to 1 mM glycine ([3]; relative to 1 mM glycine)	EC50 ([3]; read-out: NMDAR2C column B: log EC50 (converted), [3H]MK-801 binding)	NMDAR2D: % maximal [3H]MK-801 binding relative to 1 mM glycine ([4]; relative to 1 mM glycine)	EC50 ([4]; read-out: NMDAR2D column B: log EC50 (converted), [3H]MK-801 binding)	AUClast (IV pharmacokinetics)	C0 (IV pharmacokinetics)	Cl (IV pharmacokinetics)	T1/2 (IV pharmacokinetics)	Vss (IV pharmacokinetics)	% F [5]	AUClast [5]	CSF Cmax ([5]; CSF)	Brain Cmax ([5]; brain)	Tmax ([5]; normal saline)	Cmax ([5]; plasma)	SMILES
− (−=0)	> 100 nM	+ (<100%=+)	< 1 nM	–	–	–	–	–	–	–	–	–	–	–	–	–	–	–	CC(C)(C)OC(=O)N1CC2(CNC2=O)CC12CNC2=O (single isomer, unassigned) [AY-2]
+ (<100%=+)	< 1 nM	+ (<100%=+)	< 1 nM	− (−=0)	> 100 nM	+ (<100%=+)	< 1 nM	3552.4 ng·h/mL	3159.4 ng/mL	9.4 mL/min/kg	6.11 h	1.03 L/kg	50%	8863.3 ng·h/mL	277 ng/mL	125.3 ng/mL	0.83 h	2716 ng/mL	CC(C)(C)OC(=O)N1CC2(CNC2=O)CC12CNC2=O (single isomer, unassigned) [AY-3]
+ (<100%=+)	< 1 nM	+ (<100%=+)	–	–	–	–	–	–	–	–	–	–	–	–	–	–	–	–	CC(C)(C)OC(=O)N1CC2(CNC2=O)CC12CNC2=O (single isomer, unassigned) [AY-4]
